According to patent publication US11267861B2, “Peptide-oligourea foldamer compounds and methods of their use” (UREKA SARL, priority 2016, dated 2022):

Legend:
[1] = target: T1, mouse GLP-1 receptor (Mus musculus, UniProt O35659); assay: GLP-1 functional assay: agonist activity by cAMP production (HTRF) in βTC6 cells; assay type: cell-based
T1 construct: mouse GLP-1 receptor endogenously expressed in βTC6 cells; endogenous in cells; host or cells: βTC6 cells
T1 sequence (O35659 22-463): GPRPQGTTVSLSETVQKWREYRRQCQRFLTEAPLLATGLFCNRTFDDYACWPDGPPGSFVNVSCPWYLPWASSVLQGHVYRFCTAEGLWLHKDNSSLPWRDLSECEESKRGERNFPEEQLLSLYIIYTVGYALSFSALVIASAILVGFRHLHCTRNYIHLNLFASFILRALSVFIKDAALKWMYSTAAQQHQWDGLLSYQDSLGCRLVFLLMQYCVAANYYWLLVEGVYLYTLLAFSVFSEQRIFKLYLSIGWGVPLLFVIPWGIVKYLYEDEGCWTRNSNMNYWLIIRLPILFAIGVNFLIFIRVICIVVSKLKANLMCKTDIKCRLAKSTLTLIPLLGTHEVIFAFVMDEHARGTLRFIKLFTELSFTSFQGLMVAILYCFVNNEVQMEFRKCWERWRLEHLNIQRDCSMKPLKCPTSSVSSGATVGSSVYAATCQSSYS
Procedure: For stimulated control measurement, separate assay wells contain 10 nM GLP-1(7-37) were utilized.
Following incubation, the cells were lysed and the fluorescence acceptor (D2-labeled cAMP) and fluorescence donor (anti-cAMP antibody labeled with europium cryptate) were added. […] The results are expressed as a percent of the control response to 10 nM GLP-1(7-37). The standard reference agonist is GLP-1(7-37), which was tested in each experiment at several concentrations to generate a concentration-response curve from which its EC50 value was calculated.
HTRF (Homogeneous Time-Resolved Fluorescence) principle. The HTRF technology is based on time resolved fluorescence energy transfer (TR-FRET), which occurs between long-lived fluorophore Europium or Terbium Cryptates, and EuK or Tb respectively, as a donor and the allophycocyanin XL665, d2 or Red as acceptor. Many compounds and proteins present in biological fluids or serum are naturally fluorescent, and the use of conventional, prompt fluorescence leads to serious limitations in assay sensitivity. The use of long-lived fluorophore combined with time-resolved detection (a delay between excitation and emission detection) minimizes prompt fluorescence interference.

[2] = target: T2, Leucyl aminopeptidase (EC 3.4.11.1) (Sus scrofa, UniProt P28839); assay: Enzymatic degradation by leucyl aminopeptidase; assay type: in vitro ADME, porcine; details: compared to the native peptides
T2 construct: from porcine kidney (Sigma); chromatographically purified suspension; purchased Sigma; host or cells: porcine kidney
T2 sequence (P28839 1-519): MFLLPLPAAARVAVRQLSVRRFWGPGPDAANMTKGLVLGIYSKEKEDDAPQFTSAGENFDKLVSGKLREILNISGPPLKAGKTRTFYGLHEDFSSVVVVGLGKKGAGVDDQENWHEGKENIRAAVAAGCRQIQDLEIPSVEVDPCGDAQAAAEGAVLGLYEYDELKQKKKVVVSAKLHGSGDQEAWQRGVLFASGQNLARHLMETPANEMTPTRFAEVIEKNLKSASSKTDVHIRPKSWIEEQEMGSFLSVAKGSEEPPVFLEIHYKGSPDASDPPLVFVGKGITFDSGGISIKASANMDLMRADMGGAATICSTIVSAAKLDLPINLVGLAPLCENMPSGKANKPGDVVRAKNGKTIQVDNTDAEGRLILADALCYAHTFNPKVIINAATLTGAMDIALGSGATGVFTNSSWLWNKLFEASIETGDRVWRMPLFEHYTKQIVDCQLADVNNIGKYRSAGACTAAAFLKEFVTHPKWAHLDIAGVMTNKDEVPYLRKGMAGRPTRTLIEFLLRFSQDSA
Procedure: Enzymatic Degradation—Leucyl Aminopeptidase. Leucyl aminopeptidase (EC 3.4.11.1) from porcine kidney (Sigma); chromatographically purified suspension in 2.9 M (NH4)2SO4, 0.1 M Tris, 5 mM MgCl2 solution, pH 8.0; stock solution in PBS buffer (pH 7.2, 0.01 M). For each degradation experiment, stock solutions of the peptidic substrate and the enzyme were made using phosphate-buffered saline (PBS) buffer solution. […] The pH was adjusted either with NaOH (1 M) or with HCl (1 M) prior to use. A solution of the substrate in PBS buffer (pH 7.2, 0.01 M) and a solution of the required amount of enzyme, were mixed and incubated at 25° C. for 4 hours. Degradation was stopped with concentrated AcOH, and buffer solution was added so that the total volume reached 150 μL.
(§1) The resulting mixture was analyzed by reversed-phase HPLC. A mixture of CH3CN/H2O (0.1% TFA) was used as eluent. Gradients were 10% CH3CN to 100% CH3CN in 10 minutes. The flow rate, for all separations, was 1 mL·min^−1.

[3] = target: T3, Carboxypeptidase A (EC 3.4.17.1) (Bos taurus, UniProt P00730); assay: Enzymatic degradation by carboxypeptidase A; assay type: in vitro ADME, bovine; details: same results = more stable than the native peptides
T3 construct: from bovine pancreas (Fluka), milky suspension; purchased Fluka; host or cells: bovine pancreas
T3 sequence (P00730 111-419): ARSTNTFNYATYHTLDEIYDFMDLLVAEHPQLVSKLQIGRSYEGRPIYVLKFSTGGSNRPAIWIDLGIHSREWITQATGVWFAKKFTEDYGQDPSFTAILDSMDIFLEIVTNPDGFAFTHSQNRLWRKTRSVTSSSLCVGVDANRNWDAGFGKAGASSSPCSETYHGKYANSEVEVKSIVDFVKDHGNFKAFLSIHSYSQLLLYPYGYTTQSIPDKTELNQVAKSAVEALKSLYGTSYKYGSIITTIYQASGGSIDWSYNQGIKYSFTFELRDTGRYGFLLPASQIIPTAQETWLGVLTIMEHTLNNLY
Procedure: Enzymatic Degradation—Carboxypeptidase A. Carboxypeptidase A (EC 3.4.17.1) from bovine pancreas (Fluka), milky suspension, stock solution in PBS buffer (pH 7.5, 0.01 M). For each degradation experiment, stock solutions of the peptidic substrate and the enzyme were made using phosphate-buffered saline (PBS) buffer solution. The enzyme concentrations of the stock solutions were selected such that the standard substrates were totally degraded after a maximum of 15 min (ratio 2[enzyme]:100[substrate]). PBS buffer solution (10 mM sodium phosphate, 0.14 M NaCl) was prepared as follows: Solution A (4.75 mL of 0.2 M NaH2PO4.H2O), solution B (20.25 mL of 0.2 M Na2HPO4.H2O), NaCl (4.5 g) and H2O (25 mL) were stirred for 15 min at room temperature and diluted tenfold with H2O. The pH was adjusted either with NaOH (1 M) or with HCl (1 M) prior to use. A solution of the substrate in PBS buffer (pH 7.5, 0.01 M) and a solution of the required amount of enzyme, were mixed and incubated at 25° C. for 4 hours. Degradation was stopped with concentrated AcOH, and buffer solution was added so that the total volume reached 150 μL.
as §1

[4] = system: chymotrypsin; assay: Enzymatic degradation by chymotrypsin; assay type: in vitro ADME; details: compared to native peptide GLP-1 (SEQ ID NO: 1)
Procedure: Enzymatic Degradation—Chymotrypsin and Trypsin. Stock solutions of the compounds were prepared at a concentration of 400 μM in a solution of 50 mM HEPES buffer, 50 mM NaCl, 0.05% Tween-80, pH 8.0. Stock solution of the chymotrypsin or trypsin was prepared at a concentration of 250 μg/mL in water. Stability of compounds to chymotrypsin was assessed by conducting a protease reaction in a 96-well plates at room temperature. Each well received 10 μL of HEPES buffer, 38 μL of the solution of compound to be assayed (final concentration 304 μmol/L), and 2 μL of the enzyme solution (final concentration 10 μg/mL) for a total volume of 50 μL. Each compound was also incubated in the absence of the enzyme (12 μL of HEPES buffer and 38 μL of the compound).
At the indicated time (5, 10, 15, 30 and 60 minute(s)) a 10 μL aliquot was removed from each experimental reaction and pipet into 100 μL of 1% TFA solution to quench the reaction (t=0 minutes was determined using the reaction without enzyme). A portion of the quenched reaction solution was analyzed by HPLC. The time course of peptide degradation was determined by integrating the area of each peak in a series of HPLC traces. Another portion of the quenched reaction was analyzed by LC-MS for identification of each peptide fragment.

| Compound | EC50 [1] [nM] | stability (half-life) with leucyl aminopeptidase compared to native peptides [2] | stability with carboxipeptidase A compared to native peptides [3] | half-life in the chymotrypsin degradation test compared to native peptide [4] |
| --- | --- | --- | --- | --- |
| CC[C@H](C)[C@H](NC(=O)[C@H](Cc1ccccc1)NC(=O)[C@H](CCC(=O)O)NC(=O)[C@H](CCCCN)NC(=O)[C@H](C)NC(=O)[C@H](C)NC(=O)[C@H](CCC(N)=O)NC(=O)CNC(=O)[C@H](CCC(=O)O)NC(=O)[C@H](CC(C)C)NC(=O)[C@H](Cc1ccc(O)cc1)NC(=O)[C@H](CO)NC(=O)[C@H](CO)NC(=O)[C@@H](NC(=O)[C@H](CC(=O)O)NC(=O)[C@H](CO)NC(=O)[C@@H](NC(=O)[C@H](Cc1ccccc1)NC(=O)[C@@H](NC(=O)CNC(=O)[C@H](CCC(=O)O)NC(=O)[C@H](C)NC(=O)[C@@H](N)Cc1c[nH]cn1)[C@@H](C)O)[C@@H](C)O)C(C)C)C(=O)N[C@@H](C)CNC(=O)N[C@@H](Cc1c[nH]c2ccccc12)C(=O)N[C@@H](CC(C)C)C(=O)N[C@H](C(=O)N[C@@H](CCCCN)C(=O)NCC(=O)N[C@@H](CCCNC(=N)N)C(=O)NCC(=O)O)C(C)C [Compound 2] | 1.5 | more stable than the native peptides | same results | longer half-life |
| CC[C@H](C)[C@H](NC(=O)[C@H](Cc1ccccc1)NC(=O)[C@H](CCC(=O)O)NC(=O)[C@H](CCCCN)NC(=O)[C@H](C)NC(=O)[C@H](C)NC(=O)[C@H](CCC(N)=O)NC(=O)CNC(=O)[C@H](CCC(=O)O)NC(=O)[C@H](CC(C)C)NC(=O)[C@H](Cc1ccc(O)cc1)NC(=O)[C@H](CO)NC(=O)[C@H](CO)NC(=O)[C@@H](NC(=O)[C@H](CC(=O)O)NC(=O)[C@H](CO)NC(=O)[C@@H](NC(=O)[C@H](Cc1ccccc1)NC(=O)[C@@H](NC(=O)CNC(=O)[C@H](CCC(=O)O)NC(=O)[C@H](C)NC(=O)[C@@H](N)Cc1c[nH]cn1)[C@@H](C)O)[C@@H](C)O)C(C)C)C(=O)N[C@@H](C)C(=O)N[C@@H](Cc1c[nH]c2ccccc12)C(=O)N[C@H](CNC(=O)N[C@H](C(=O)N[C@@H](CCCCN)C(=O)NCC(=O)N[C@@H](CCCNC(=N)N)C(=O)NCC(=O)O)C(C)C)CC(C)C [Compound 6] | 0.21 | – | same results | longer half-life |
| CC[C@H](C)[C@H](NC(=O)[C@H](Cc1ccccc1)NC(=O)[C@H](CCC(=O)O)NC(=O)[C@H](CCCCN)NC(=O)[C@H](C)NC(=O)[C@H](C)NC(=O)[C@H](CCC(N)=O)NC(=O)CNC(=O)[C@H](CCC(=O)O)NC(=O)[C@H](CC(C)C)NC(=O)[C@H](Cc1ccc(O)cc1)NC(=O)[C@H](CO)NC(=O)[C@H](CO)NC(=O)[C@@H](NC(=O)[C@H](CC(=O)O)NC(=O)[C@H](CO)NC(=O)[C@@H](NC(=O)[C@H](Cc1ccccc1)NC(=O)[C@@H](NC(=O)CNC(=O)[C@H](CCC(=O)O)NC(=O)[C@H](C)NC(=O)[C@@H](N)Cc1c[nH]cn1)[C@@H](C)O)[C@@H](C)O)C(C)C)C(=O)N[C@@H](C)C(=O)N[C@@H](Cc1c[nH]c2ccccc12)C(=O)N[C@@H](CC(C)C)C(=O)N[C@@H](C)CNC(=O)N[C@@H](CCCCN)C(=O)NCC(=O)N[C@@H](CCCNC(=N)N)C(=O)NCC(=O)O [Compound 7] | 0.22 | – | same results | longer half-life |
